# T1: wild-type human GPR88 with BRIL fused to the N-terminus (N-BRIL fusion construct) (human, UniProt Q9GZN0 1-384)
# T1 construct: GPR88, human; BRIL was fused to the N-terminus to raise expression; also called BRIL-GPR88; GPCR88; not shown: Flag, N-terminal, kept; BRIL, N-terminal, kept
# T1 sequence (looked up): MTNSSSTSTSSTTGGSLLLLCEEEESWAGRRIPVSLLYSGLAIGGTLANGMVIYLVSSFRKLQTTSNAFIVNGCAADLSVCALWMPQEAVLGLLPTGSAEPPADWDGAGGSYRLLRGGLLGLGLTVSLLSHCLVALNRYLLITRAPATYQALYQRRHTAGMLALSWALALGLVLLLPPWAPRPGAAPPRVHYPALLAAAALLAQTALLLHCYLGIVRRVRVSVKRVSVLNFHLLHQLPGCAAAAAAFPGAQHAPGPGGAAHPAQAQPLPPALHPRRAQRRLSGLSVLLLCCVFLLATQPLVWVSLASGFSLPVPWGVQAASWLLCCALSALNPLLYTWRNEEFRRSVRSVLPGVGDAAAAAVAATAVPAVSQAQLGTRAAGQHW
# B1: human Gαi1 (Gα subunit of the Gi1 heterotrimer) (natural protein)
# chain: MGCTLSAEDKAAVERSKMIDRNLREDGEKAAREVKLLLLGAGESGKSTIVKQMKIIHEAGYSEEECKQYKAVVYSNTIQSIIAIIRAMGRLKIDFGDSARADDARQLFVLAGAAEEGFMTAELAGVIKRLWKDSGVQACFNRSREYQLNDSAAYYLNDLDRIAQPNYIPTQQDVLRTRVKTTGIVETHFTFKDLHFKMFDVGGQRSERKKWIHCFEGVTAIIFCVALSDYDLVLAEDEEMNRMHESMKLFDSICNNKWFTDTSIILFLNKKDLFEEKIKKSPLTICYPEYAGSNTYEEAAAYIQCQFEDLNKRKDTKEIYTHFTCATDTKNVQFVFDAVTDVIIKNNLKDCGLF
# notes: Gαi1, human, cloned into pFastbac1; no tag is named; The same chain as in m2; it was never tested alone, only within the heterotrimer in the structures; source: Trichoplusia ni Hi5 insect cells, co-expressed with Gβ1γ2, purified as the heterotrimer (Ni-NTA)
# Biological target: T1, wild-type human GPR88 with BRIL fused …
# Assay: cryo-EM structure; GPR88-Gi1-scFv16 complex with 2-PCCA (100 µM at assembly, 10 µM in later buffers); purified GPR88 and Gi1 mixed on ice, apyrase added, complex held on anti-FLAG M1 resin, scFv16 added, SEC; 20 mM HEPES pH 7.5, 100 mM NaCl, LMNG/GDN/CHS
# Settings: both partners purified
binder,measurement,value
B1,binding result,binds
